# Molecular target: T1, hVAChT (Homo sapiens, UniProt Q16572)
# T1 sequence (Q16572 1-532): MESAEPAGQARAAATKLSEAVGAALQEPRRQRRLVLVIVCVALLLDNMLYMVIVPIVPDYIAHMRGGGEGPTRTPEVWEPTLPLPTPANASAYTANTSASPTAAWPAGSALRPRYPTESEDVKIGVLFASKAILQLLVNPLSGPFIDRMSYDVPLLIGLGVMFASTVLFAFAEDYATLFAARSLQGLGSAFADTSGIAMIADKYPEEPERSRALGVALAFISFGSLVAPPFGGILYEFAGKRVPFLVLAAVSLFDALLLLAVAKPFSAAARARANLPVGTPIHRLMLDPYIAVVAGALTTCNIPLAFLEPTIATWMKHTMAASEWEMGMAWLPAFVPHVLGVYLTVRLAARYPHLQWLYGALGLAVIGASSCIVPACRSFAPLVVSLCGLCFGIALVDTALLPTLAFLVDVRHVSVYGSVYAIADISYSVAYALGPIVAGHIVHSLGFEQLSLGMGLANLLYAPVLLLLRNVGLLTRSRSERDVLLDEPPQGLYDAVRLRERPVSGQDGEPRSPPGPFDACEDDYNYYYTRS
# Assay: Competitive binding assay with
# Conditions: radioligand (-)-[^3H]TZ659 2 nM, test ligands 0.1 nM to 10 μM, 60 min, 25 °C
smiles,measurement,value
O=C(c1ccc(F)cc1)c1cccc2c1C[C@@H](N1CCC(c3ccccc3)CC1)[C@H](O)C2 [FBBV],Ki,7.17 ± 0.66 nM

# Source: paper PMC4369186 (European journal of pharmacology, 2015)
